Target: T1, Ndc80 subunit of the Ndc80 complex (S. cerevisiae, UniProt P40460 1-691)
T1 construct: Ndc80 subunit of the budding yeast Ndc80 complex; Stood in the structure as part of the Ndc80 complex; also called Ndc80^CH; Ndc80^CC; source: as subunit of m1
T1 sequence (looked up): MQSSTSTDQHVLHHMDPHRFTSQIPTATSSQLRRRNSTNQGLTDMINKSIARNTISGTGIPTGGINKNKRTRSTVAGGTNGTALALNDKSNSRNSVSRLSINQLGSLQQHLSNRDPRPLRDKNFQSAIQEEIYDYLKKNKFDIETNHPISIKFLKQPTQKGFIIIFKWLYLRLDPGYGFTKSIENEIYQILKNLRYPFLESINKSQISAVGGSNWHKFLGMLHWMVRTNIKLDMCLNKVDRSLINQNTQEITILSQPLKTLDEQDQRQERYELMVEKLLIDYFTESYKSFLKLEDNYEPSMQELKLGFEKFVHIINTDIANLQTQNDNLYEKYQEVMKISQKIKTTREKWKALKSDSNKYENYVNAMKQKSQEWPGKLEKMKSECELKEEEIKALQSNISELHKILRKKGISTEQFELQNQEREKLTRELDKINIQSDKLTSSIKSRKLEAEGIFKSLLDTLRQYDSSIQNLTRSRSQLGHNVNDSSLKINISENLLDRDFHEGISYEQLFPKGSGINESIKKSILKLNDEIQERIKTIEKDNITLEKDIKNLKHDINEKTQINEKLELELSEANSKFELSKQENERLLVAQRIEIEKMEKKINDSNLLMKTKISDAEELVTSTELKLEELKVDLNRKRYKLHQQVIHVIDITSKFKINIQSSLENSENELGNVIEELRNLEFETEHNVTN
Assay: cryo-EM structure; complexes assembled on cryo-EM grids by step-wise addition of taxol-stabilized microtubule filaments, Ndc80c and Dam1c; sub-boxing, signal subtraction and symmetry expansion for the separate reconstructions
Details: both partners purified

B1: Nuf2 subunit of the Ndc80 complex (natural protein, S. cerevisiae, UniProt P33895 1-451, looked up)
chain: MSRNQDVFPILDLQELVICLQSCDFALATQENISRPTSDYMVTLYKQIIENFMGISVESLLNSSNQETGDGHLQEENENIYLDTLNVLVLNKICFKFFENIGVQDFNMTDLYKPEAQRTQRLLSAVVNYARFREERMFDCNSFILQMESLLGQLRSKFDDYNLIQQQLKQYEDVDGDNIPDEQELQKLEEQNKELEIQLKKLTKIQETLSIDYNDYKISKQSIFKDLEALSFQIVELESNRDKLIKISNTDMEELSEGIKELNDLLIQRKKTLDDLTAQQKNLQDTVTTFETIISELYDVLRIISSEVQESNRTETELVGLKQNLINNKLKLMNVLETGIMYKLEILQEQLDLQLKNLEKLSQDTKEESRLNDTKLMDLQIKYENEIKPKIDKTDIFIQEELISGKINKLNDEIKQLQKDFEVEVKEIEIEYSLLSGHINKYMNEMLEYMQ
notes: Nuf2 subunit of the budding yeast Ndc80 complex; Stood in the structure as part of the Ndc80 complex; also called Nuf2^CH; Nuf2^CC; source: as subunit of m1
  binding result: binds

— doi:10.1101/2023.07.20.549907, “Mechanism of outer kinetochore assembly on microtubules and its regulation by mitotic error correction” (bioRxiv, 2023)
